In patent US6399782B1, “Benzimidazole inhibitors of fructose 1,6-bisphosphatase” (Metabasis Therapeutics, Inc., priority 1997, dated 2002):

Biological target: T1, human liver FBPase (Homo sapiens, UniProt P09467)
T1 construct: made in house; host or cells: E. coli BL21
T1 sequence (P09467 2-338 limits assumed): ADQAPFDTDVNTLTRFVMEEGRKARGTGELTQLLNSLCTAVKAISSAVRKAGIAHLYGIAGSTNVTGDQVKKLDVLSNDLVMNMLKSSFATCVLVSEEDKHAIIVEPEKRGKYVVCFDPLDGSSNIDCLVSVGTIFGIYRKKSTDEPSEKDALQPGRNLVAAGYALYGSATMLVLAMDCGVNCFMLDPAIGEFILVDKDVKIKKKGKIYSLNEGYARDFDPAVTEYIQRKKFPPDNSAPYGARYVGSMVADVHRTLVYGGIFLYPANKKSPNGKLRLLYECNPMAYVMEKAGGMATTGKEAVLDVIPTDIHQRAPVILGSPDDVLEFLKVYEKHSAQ
Assay: Inhibition of human liver FBPase
Format: biochemical
Conditions: result in words

CCc1cc(F)c(N)c2nc(-c3ccc(P(=O)(O)O)o3)n(CC(C)C)c12 [Compound 12.64]
inhibition of human liver FBPase activity (FIG. 2): inhibit human liver FBPase activity in vitro in a dose dependent manner
